Values quoted from earlier work in paper PMC4105021 (ChemMedChem, 2014).

Biological target: T1, human TLR8 (Homo sapiens, UniProt Q9NR97)
T1 sequence (Q9NR97 27-1041): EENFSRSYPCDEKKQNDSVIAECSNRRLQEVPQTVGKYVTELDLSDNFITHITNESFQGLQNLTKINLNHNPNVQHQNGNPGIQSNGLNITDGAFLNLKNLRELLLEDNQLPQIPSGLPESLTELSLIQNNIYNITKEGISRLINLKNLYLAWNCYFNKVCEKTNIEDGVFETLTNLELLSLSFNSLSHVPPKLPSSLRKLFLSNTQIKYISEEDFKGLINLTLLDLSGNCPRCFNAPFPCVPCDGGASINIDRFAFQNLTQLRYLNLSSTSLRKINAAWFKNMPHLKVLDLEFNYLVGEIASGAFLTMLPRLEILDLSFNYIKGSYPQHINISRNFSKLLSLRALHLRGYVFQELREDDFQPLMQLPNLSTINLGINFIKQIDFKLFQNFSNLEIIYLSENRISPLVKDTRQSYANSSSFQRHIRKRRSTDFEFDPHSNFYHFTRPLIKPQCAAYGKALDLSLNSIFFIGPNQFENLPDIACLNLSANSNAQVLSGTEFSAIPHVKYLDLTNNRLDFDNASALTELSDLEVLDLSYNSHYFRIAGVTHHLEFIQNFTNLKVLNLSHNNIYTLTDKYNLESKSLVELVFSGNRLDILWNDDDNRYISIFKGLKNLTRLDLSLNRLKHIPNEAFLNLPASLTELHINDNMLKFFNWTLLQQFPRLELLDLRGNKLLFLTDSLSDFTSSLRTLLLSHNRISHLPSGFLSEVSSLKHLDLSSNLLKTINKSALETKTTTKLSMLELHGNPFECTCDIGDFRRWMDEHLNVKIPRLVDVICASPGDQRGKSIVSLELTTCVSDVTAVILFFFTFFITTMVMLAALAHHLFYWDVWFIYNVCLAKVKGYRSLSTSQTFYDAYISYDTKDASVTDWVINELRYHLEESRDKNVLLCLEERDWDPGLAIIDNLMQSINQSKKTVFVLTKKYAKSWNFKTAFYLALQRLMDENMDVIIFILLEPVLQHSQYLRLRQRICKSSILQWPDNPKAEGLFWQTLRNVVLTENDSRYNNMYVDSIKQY
Settings: IL-12 and IL-18 induction, without IFN-α inducing properties; ref 8a; cited from earlier work

## CCCCc1cc2c(o1)c(N)nc1ccccc12 [Compound 3, 2-butylfuro[2,3-c]quinolin-4-amine]
  TLR8 agonistic activity profile: pure TLR8 agonistic activity
